# Data published in patent US5298508A, “Irreversible inhibitors of adenosine receptors” (priority 1992, dated 1994).
# Target: T1, central A1 receptors (Rattus norvegicus, UniProt P25099)
# T1 construct: A1 -adenosine receptors in rat brain membranes; from tissue; host or cells: rat brain membranes
# T1 sequence (P25099 1-326): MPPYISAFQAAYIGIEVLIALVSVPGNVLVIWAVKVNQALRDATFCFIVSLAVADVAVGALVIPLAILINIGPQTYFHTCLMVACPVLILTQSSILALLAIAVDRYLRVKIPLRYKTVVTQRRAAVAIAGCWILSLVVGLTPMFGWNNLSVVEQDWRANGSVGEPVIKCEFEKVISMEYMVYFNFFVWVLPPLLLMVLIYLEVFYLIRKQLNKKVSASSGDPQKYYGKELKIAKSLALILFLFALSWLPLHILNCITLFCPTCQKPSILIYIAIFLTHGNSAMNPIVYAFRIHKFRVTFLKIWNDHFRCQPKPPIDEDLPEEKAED
# Assay: irreversible inhibition of [125I]APNEA binding after one hour incubation and washout, rat brain membranes
# Details: non-chemically reactive ligand used for comparison
smiles,measurement,value
"CCCn1c(=O)c2[nH]c(-c3ccc(OCC(=O)NCCN)cc3)nc2n(CCC)c1=O [Compound 3, reference compound]",degree of recovery of [125I]APNEA binding sites,90%
